IC50 data for 1 molecule are collected here from patent US20100015058A1 (STANFORD UNIVERSITY, published 2010).

By UniProt entry, the sequences of proteins in these tests, tags left out. Residues count along the entry.
UniProt P06756, 31-1048, chain 1 of 2: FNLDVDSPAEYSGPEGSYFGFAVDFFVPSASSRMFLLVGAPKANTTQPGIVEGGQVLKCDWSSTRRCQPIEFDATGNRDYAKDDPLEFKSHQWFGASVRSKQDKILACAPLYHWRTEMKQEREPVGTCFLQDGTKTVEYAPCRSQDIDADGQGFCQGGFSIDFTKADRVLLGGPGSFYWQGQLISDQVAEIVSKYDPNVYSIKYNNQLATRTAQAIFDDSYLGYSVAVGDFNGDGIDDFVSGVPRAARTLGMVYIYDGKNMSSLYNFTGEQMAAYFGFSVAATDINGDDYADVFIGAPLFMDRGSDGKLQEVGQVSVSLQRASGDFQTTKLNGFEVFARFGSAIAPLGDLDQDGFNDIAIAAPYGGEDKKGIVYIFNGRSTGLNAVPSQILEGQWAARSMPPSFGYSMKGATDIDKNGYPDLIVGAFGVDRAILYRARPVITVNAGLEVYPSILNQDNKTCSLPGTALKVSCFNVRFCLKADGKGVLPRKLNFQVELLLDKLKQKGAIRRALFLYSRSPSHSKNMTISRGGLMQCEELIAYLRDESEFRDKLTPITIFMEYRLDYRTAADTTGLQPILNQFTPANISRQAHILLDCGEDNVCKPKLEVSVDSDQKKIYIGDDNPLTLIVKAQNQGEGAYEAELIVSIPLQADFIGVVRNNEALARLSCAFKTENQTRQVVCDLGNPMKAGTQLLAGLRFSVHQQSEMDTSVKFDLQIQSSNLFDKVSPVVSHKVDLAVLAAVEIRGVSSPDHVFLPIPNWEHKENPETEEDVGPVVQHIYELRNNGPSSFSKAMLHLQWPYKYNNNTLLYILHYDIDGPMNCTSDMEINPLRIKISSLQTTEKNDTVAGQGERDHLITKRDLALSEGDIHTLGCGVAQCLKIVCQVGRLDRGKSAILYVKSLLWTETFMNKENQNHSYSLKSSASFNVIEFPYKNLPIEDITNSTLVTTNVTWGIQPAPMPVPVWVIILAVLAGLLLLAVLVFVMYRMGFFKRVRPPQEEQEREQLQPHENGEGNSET
integrin αvβ3, UniProt P05106, 27-788, chain 2 of 2: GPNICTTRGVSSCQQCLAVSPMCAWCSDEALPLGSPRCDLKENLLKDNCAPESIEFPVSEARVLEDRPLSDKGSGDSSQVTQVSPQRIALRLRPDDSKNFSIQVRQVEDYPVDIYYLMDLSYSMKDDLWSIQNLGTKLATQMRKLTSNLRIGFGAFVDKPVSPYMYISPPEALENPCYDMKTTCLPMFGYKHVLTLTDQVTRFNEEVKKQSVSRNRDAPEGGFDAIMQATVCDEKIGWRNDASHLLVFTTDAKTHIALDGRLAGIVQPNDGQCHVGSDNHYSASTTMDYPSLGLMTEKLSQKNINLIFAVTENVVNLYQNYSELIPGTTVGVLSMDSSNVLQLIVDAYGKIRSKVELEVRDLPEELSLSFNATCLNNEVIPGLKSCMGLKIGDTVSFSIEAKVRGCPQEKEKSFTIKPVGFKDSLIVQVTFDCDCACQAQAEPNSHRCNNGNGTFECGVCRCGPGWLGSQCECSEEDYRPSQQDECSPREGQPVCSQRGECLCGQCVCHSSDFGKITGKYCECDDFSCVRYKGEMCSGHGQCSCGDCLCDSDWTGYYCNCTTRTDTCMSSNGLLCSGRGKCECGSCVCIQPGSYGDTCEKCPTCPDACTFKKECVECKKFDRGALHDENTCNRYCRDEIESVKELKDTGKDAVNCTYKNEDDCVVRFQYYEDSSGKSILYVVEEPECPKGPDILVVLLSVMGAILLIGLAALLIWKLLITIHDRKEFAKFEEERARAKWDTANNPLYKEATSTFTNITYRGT

This assay has as its target T1, integrin αvβ3 (human, UniProt P06756 31-1048; P05106 27-788).
T1 construct: whole, on cells; Endogenous receptor on U87MG human glioblastoma cells in the IC50 assays; also called integrin alpha v beta 3; human integrin αvβ3
The assay can be described thus: competitive binding with ^125I-c(RGDyK) on U87MG cells.

B1: NOTA-RGD-BBN (VII) (peptide)
peptide 1: RGDYK
peptide 2: EQWAVGHLM
modifications: NOTA (from p-SCN-Bn-NOTA, SCN-amine reaction) on the amine of RGD-BBN; Aca between Glu and Gln; C-terminal amide (Met-NH2); cyclic (cyclo); D-Tyr at position 4; Lys side chain joined to the Glu …
notes: also called NOTA-RGD-bombesin; ^64Cu-NOTA-RGD-BBN
Usually IC50 stands for the concentration that inhibits the measured activity by half. The low end stands for greater potency in that assay, the high end for weaker potency in that assay. For the molecule B1, the IC50 amounted to 22.6 nM.
